Tested on: Fibroblast growth factor receptor
Test: Inhibition of FGFR (unknown origin) at 10 uM after 120 mins P33 radiolabeled kinase activity assay
Details: Homo sapiens

## COCCNC(=O)c1ccc2c(c1)nc(-c1cnc(-c3ccc(Cl)cc3)[nH]1)n2CCOC
  inhibition: -8.06%

— ChEMBL document CHEMBL3627608, “Crystal structures of human RIP2 kinase catalytic domain complexed with ATP-competitive inhibitors: Foundations for understanding inhibitor selectivity” (Bioorg Med Chem, 2015)
